Key:
Test in all cases: co-IP; endogenous proteins in HCT116 lysate (150 mM NaCl, 50 mM Tris-HCl pH 7.5, 1% NP-40, protease inhibitor, SUPERase-In); antibody against LARP7, HEXIM1 or MEPCE 2 h at 4 °C, Protein A beads, western blot; cells treated with control siRNA or PUS7 siRNA (PUS7 KD) before lysis
Conditions in all cases: partners not purified
MEPCE = target: T1, MEPCE (human (endogenous in HCT116), UniProt Q7L2J0 1-689)
T1 construct: MEPCE, human, endogenous protein of the 7SK snRNP, precipitated with a rabbit anti-MEPCE antibody; source: endogenous, HCT116 lysate
T1 sequence (looked up): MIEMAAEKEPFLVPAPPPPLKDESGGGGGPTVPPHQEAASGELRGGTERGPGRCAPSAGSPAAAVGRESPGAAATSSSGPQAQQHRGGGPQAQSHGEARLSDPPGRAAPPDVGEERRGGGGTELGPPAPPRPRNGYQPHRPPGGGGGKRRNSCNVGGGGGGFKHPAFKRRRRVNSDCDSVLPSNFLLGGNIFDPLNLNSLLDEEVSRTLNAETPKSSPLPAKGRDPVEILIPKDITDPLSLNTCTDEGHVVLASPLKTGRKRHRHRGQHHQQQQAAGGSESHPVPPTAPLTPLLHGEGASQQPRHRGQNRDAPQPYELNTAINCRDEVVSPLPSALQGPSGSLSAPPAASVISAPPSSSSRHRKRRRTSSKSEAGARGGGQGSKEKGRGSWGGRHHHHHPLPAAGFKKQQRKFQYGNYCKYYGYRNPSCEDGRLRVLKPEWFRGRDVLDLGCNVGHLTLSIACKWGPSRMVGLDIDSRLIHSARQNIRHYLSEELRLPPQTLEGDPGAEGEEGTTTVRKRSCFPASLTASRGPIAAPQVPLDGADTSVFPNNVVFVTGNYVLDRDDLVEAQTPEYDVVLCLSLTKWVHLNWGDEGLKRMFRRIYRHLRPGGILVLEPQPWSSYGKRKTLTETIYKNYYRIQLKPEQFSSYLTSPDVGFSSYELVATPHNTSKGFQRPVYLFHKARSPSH

By UniProt entry, the sequences of proteins in these tests, tags left out.
UniProt O94992, whole entry: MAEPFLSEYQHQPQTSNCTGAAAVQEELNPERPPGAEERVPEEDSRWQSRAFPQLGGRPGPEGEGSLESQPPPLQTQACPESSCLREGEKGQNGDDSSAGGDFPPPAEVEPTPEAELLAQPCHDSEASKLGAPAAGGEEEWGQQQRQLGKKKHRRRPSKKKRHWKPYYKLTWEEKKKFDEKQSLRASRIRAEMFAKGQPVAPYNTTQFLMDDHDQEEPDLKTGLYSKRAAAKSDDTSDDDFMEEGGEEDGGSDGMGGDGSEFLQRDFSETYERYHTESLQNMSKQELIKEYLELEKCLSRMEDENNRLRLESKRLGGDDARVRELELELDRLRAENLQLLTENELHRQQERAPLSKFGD

LARP7 = target: T2, LARP7 (human (endogenous in HCT116), UniProt Q4G0J3 1-582)
T2 construct: LARP7, human, endogenous protein of the 7SK snRNP, precipitated with a rabbit anti-LARP7 antibody; source: endogenous, HCT116 lysate
T2 sequence (looked up): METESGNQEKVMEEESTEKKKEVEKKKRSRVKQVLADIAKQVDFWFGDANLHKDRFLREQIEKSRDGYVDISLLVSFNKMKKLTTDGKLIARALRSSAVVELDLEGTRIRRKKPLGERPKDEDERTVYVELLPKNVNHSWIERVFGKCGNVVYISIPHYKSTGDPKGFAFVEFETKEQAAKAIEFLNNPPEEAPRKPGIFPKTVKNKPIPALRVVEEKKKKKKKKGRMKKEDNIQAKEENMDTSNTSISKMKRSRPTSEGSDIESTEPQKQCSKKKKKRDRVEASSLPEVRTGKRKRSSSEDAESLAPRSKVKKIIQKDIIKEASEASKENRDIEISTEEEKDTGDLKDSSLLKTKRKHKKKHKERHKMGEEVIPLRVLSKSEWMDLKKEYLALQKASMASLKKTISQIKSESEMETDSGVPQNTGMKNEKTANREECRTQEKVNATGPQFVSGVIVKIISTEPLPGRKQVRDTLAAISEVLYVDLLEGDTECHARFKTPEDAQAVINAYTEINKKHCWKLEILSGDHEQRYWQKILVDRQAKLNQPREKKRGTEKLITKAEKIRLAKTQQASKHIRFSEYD

HEXIM1 = target: T3, HEXIM1 (human (endogenous in HCT116), UniProt O94992)
T3 construct: HEXIM1, human, endogenous protein of the 7SK snRNP, precipitated with a rabbit anti-HEXIM1 antibody; also called HEIMX1; source: endogenous, HCT116 lysate

percent reduction of relative binding in PUS7 KD cells against control cells (MEPCE): 71%
percent reduction of relative binding in PUS7 KD cells against control cells (LARP7): 67%
percent reduction of relative binding in PUS7 KD cells against control cells (HEXIM1): 39%
B1: Cyclin T1 (natural protein, human (endogenous in HCT116), UniProt O60563 1-726, looked up)
chain: MEGERKNNNKRWYFTREQLENSPSRRFGVDPDKELSYRQQAANLLQDMGQRLNVSQLTINTAIVYMHRFYMIQSFTQFPGNSVAPAALFLAAKVEEQPKKLEHVIKVAHTCLHPQESLPDTRSEAYLQQVQDLVILESIILQTLGFELTIDHPHTHVVKCTQLVRASKDLAQTSYFMATNSLHLTTFSLQYTPPVVACVCIHLACKWSNWEIPVSTDGKHWWEYVDATVTLELLDELTHEFLQILEKTPNRLKRIWNWRACEAAKKTKADDRGTDEKTSEQTILNMISQSSSDTTIAGLMSMSTSTTSAVPSLPVSEESSSNLTSVEMLPGKRWLSSQPSFKLEPTQGHRTSENLALTGVDHSLPQDGSNAFISQKQNSKSVPSAKVSLKEYRAKHAEELAAQKRQLENMEANVKSQYAYAAQNLLSHHDSHSSVILKMPIEGSENPERPFLEKADKTALKMRIPVAGGDKAASSKPEEIKMRIKVHAAADKHNSVEDSVTKSREHKEKHKTHPSNHHHHHNHHSHKHSHSQLPVGTGNKRPGDPKHSSQTSNLAHKTYSLSSSFSSSSSTRKRGPSEETGGAVFDHPAKIAKSTKSSSLNFSFPSLPTMGQMPGHSSDTSGLSFSQPSCKTRVPHSKLDKGPTGANGHNTTQTIDYQDTVNMLHSLLSAQGVQPTQPTAFEFVRPYSDYLNPRSGGISSRSGNTDKPRPPPLPSEPPPPLPPLPK
notes: Cyclin T1, human, endogenous, component of P-TEFb, detected by western blot; Component of the P-TEFb complex; results are printed for CDK9 and Cyclin T1 one by one; source: endogenous, HCT116 lysate

Reference: paper PMC12575831, “Pseudouridylation of 7SK by PUS7 regulates Pol II transcription elongation” (Nature Communications, 2025)
